Measurements: patent US20230404929A1, “Intradermal Delivery of Extracellular Vesicle-Encapsulated Curcumin Using Dissolvable Microneedle Arrays” (priority 2020, published 2023)

Settings: buffer

Substance: albumin-curcumin: curcumin conjugated to albumin
- curcumin remaining stable up to day 7: about 8%
- curcumin remaining stable (3 h): 60%
